Reference: patent US20260382749A1, “BENZAZEPINE DERIVATIVE, CONJUGATE CONTAINING SAME, AND USE THEREOF” (published 2026)
Values belong to the substance of their own block, whether it stands above or below them.

By UniProt entry, the sequences of proteins in these tests, tags left out. Residues count along the entry.
UniProt Q9NR97, 27-1041 limits assumed: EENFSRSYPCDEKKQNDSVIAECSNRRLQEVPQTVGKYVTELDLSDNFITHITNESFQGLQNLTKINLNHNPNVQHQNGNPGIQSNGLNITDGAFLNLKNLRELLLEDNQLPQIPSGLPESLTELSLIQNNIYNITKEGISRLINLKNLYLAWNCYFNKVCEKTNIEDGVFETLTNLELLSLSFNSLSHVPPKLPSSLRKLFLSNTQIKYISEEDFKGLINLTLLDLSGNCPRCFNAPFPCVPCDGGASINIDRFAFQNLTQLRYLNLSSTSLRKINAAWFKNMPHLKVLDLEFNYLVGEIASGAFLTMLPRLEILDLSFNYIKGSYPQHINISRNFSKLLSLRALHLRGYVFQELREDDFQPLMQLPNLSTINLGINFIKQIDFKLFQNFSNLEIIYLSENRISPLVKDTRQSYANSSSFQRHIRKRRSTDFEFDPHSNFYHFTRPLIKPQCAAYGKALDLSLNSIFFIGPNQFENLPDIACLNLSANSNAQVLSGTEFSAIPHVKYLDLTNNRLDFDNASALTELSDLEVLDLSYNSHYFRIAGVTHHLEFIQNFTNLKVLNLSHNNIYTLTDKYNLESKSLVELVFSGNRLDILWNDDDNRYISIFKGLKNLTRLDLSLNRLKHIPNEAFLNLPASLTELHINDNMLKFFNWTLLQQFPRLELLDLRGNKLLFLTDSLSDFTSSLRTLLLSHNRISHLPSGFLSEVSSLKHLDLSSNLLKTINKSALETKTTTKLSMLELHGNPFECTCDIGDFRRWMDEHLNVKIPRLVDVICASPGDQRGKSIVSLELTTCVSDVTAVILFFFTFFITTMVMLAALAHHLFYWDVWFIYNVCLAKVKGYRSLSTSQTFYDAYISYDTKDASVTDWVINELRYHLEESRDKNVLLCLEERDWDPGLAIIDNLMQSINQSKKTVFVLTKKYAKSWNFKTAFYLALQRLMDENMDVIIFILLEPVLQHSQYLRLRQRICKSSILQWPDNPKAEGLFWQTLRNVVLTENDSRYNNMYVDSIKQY
UniProt Q9NYK1, 27-1049 limits assumed: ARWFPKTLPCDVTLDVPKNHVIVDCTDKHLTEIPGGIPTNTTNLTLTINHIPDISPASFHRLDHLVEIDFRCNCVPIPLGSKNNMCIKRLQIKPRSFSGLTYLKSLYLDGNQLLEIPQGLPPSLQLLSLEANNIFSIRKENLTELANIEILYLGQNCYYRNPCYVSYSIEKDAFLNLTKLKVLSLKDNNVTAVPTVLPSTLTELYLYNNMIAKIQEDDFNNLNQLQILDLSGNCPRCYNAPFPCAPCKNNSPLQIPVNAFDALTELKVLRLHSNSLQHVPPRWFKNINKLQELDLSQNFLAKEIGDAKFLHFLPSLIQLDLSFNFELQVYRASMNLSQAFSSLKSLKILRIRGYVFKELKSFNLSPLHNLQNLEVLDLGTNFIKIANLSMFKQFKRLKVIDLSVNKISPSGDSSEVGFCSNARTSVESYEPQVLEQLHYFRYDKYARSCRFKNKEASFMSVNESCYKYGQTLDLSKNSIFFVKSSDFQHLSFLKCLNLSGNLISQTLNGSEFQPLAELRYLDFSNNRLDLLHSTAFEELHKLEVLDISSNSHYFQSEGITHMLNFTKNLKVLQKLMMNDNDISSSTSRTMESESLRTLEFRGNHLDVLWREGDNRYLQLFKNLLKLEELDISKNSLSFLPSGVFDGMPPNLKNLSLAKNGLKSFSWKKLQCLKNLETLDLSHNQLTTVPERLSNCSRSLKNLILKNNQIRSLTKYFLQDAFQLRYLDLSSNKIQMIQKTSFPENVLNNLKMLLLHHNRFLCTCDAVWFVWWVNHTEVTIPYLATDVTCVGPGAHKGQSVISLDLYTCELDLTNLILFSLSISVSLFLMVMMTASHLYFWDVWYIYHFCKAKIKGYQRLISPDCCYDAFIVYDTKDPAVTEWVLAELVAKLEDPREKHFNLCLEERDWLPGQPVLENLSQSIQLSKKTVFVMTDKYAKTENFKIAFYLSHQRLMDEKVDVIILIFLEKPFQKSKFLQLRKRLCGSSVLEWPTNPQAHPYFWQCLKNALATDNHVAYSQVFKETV

Assays:
TLR8 = TLR8 (Homo sapiens, UniProt Q9NR97); experiment: HEK-BLUE-hTLR8 cell SEAP reporter agonist assay (Quanti-Blue); conditions: read-out: TLR8 EC50; HEK-BLUE-hTLR8 cells, 24 hours
MDAMB175VII/hPBMC = experiment: System 2: TNFα secretion, MDA-MB-175VII/hPBMC co-culture; conditions: read-out: TNFα (MDAMB175VII/hPBMC) EC50; system 2, MDAMB175VII/hPBMC, 20 hours
TLR7 = TLR7 (Homo sapiens, UniProt Q9NYK1); experiment: HEK-BLUE-hTLR7 cell SEAP reporter agonist assay (Quanti-Blue); conditions: read-out: TLR7 EC50; HEK-BLUE-hTLR7 cells, 24 hours
[1] = tested on: MC38-HER2 mouse colon cancer cells; experiment: In vivo efficacy in the mouse subcutaneous xenograft model of MC38-HER2 mouse colon cancer cells (tumor volume); conditions: day 20, B6-hTLR8-HO mice
MDA-MB-468/hPBMC = experiment: System 2: TNFα secretion, MDA-MB-468/hPBMC co-culture; conditions: system 2, MDA-MB-468/hPBMC, 20 hours
NUGC-4/hPBMC = experiment: System 2: TNFα secretion, NUGC-4/hPBMC co-culture; conditions: system 2, NUGC-4/hPBMC, 20 hours

Substance: (S)-2-amino-8-(1-((6-(5-benzyl-18-(2,5-dioxo-2,5-dihydro-1H-pyrrol-1-yl)-4,7,10,13-tetraoxo-3,6,9,12-tetraoxaoctadecan-1-yl)-5,6,7,8-tetrahydro-1,6-naphthyridin-3-yl)carbamoyl)cyclopropyl)-N-(2-hydroxyethyl)-N-propyl-3H-benzo[b]azepine-4-formamide
EC50 (TLR8): 250 to 1000 nM

Substance: Enfortumab
EC50 (MDAMB175VII/hPBMC): > 100 nM

Substance: Trastuzumab
Tumor volume ([1]; Vehicle 2039.7 ± 331.0): 1100.4 ± 311.3 mm^3
T/C ([1]; vs Vehicle): 53.9%

Substance: Cetuximab
TNFα (MDA-MB-468/hPBMC) (100 nM, pg/mL) (MDA-MB-468/hPBMC): 345 pg/mL

Substance: Zolbetuximab
TNFα (NUGC-4/hPBMC) (100 nM, pg/mL) (NUGC-4/hPBMC): 261 pg/mL

The next lines start with the values.

EC50 (TLR8): < 250 nM
Substance: 2-amino-8-(1-((6-(1-(2,5-dioxo-2,5-dihydro-1H-pyrrol-1-yl)-2,12-dioxo-6,9-dioxa-3,13-diazapentadecan-15-acyl)-5,6,7,8-tetrahydro-1,6-naphthyridin-3-yl)carbamoyl)cyclopropyl)-N-(2-hydroxyethyl)-N-propyl-3H-benzo[b]azepine-4-formamide

EC50 (TLR8): 250 to 1000 nM
Substance: 2-amino-8-(1-((6-(1-(2,5-dioxo-2,5-dihydro-1H-pyrrol-1-yl)-3-oxo-7,10,13,16,19,22-hexaoxa-4-azapentacosan-25-acyl)-5,6,7,8-tetrahydro-1,6-naphthyridin-3-yl)carbamoyl)cyclopropyl)-N-(2-hydroxyethyl)-N-propyl-3H-benzo[b]azepine-4-formamide

EC50 (TLR8): 250 to 1000 nM
EC50 (TLR7): > 2000 nM
Substance: 2-amino-6-fluoro-N-(2-hydroxyethyl)-N-propyl-8-(1-((5,6,7,8-tetrahydro-1,6-naphthyridin-3-yl)carbamoyl)cyclopropyl)-3H-benzo[b]azepine-4-formamide

EC50 (MDAMB175VII/hPBMC): > 100 nM
Substance: Labetuzumab

EC50 (TLR8): 250 to 1000 nM
EC50 (TLR7): > 2000 nM
Substance: 2-amino-N^4-(2-hydroxyethyl)-N^4-propyl-N^8-(5,6,7,8-tetrahydro-1,6-naphthyridin-3-yl)-3H-benzo[b]azepine-4 8-diacetamide

EC50 (TLR8): < 250 nM
Substance: (2S,3S,4S,5R,6S)-6-(4-(((3-(1-(2-amino-4-((2-hydroxyethyl)(propyl)carbamoyl)-3H-benzo[b]azepin-8-yl)cyclopropyl-1-formylamino)-5,6,7,8-tetrahydro-1,6-naphthyridine-6-carbonyl)oxy)methyl)-2-(2-(6-(2,5-dioxo-2,5-dihydro-1H-pyrrol-1-yl)hexanoylamino)acetylamino)phenoxy)-3,45-trihydroxytetrahydro-2H-pyran-2-carboxylic acid

EC50 (TLR8): 250 to 1000 nM
Substance: 2-amino-8-(1-((6-(2-((2,5-dioxo-2,5-dihydro-1H-pyrrol-1-yl)methyl)-1,3-dioxan-5-carbonyl)-5,6,7,8-tetrahydro-1,6-naphthyridin-3-yl)carbamoyl)cyclopropyl)-N-(2-hydroxyethyl)-N-propyl-3H-benzo[b]azepine-4-formamide, isomer 2
